Earlier results in US11944600B2, “Use of cannabinoids in the treatment of a neurodegenerative disease or disorder” (priority 2017, dated 2024).

Tested on: ALS patients
Settings: cited from earlier work

Nc1nc2ccc(OC(F)(F)F)cc2s1 [riluzole]
increase in survival: approximately two to three
